Literature values as cited in US12478643B2, “Compositions and methods for the prevention or treatment of rheumatoid arthritis” (Rhode Island Hospital, priority 2021, dated 2025).
pIC50: −log10 of the molar value.

Biological target: T1, SHIP2 (Homo sapiens, UniProt O15357)
T1 sequence (O15357 1-1258): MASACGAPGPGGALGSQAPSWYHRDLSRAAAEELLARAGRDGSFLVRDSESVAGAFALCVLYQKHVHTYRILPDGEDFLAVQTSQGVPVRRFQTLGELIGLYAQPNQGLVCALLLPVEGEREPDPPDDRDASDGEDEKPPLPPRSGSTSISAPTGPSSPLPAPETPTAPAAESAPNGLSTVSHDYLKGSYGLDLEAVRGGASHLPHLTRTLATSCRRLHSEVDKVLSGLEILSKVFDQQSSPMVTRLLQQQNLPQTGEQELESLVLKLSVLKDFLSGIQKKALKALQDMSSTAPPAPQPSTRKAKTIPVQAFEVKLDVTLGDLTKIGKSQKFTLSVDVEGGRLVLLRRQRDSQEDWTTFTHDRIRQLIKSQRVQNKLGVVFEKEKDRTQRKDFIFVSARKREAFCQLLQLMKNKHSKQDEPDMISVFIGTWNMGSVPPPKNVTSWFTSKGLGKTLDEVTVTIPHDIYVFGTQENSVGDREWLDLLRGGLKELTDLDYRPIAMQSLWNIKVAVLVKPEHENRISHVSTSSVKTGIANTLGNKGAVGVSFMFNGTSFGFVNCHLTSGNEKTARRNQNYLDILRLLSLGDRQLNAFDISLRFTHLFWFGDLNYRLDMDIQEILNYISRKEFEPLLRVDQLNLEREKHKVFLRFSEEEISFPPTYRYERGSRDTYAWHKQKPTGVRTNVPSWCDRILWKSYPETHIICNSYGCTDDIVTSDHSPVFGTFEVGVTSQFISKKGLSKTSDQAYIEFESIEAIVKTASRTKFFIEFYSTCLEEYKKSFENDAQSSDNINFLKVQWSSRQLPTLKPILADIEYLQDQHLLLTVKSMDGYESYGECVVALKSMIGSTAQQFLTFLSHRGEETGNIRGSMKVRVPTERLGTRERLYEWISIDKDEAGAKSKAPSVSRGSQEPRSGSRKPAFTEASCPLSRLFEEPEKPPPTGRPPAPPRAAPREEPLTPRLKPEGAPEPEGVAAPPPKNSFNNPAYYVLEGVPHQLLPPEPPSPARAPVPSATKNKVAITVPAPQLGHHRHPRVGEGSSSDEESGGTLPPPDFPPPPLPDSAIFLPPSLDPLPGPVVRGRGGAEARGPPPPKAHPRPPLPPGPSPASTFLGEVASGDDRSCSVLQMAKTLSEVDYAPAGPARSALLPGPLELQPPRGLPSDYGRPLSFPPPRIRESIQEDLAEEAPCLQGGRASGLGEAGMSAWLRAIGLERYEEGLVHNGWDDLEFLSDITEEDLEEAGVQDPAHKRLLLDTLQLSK
Conditions: Table 1; cited from earlier work

Structure (SMILES): C[C@H](NC(=O)c1sccc1OCc1ccc(Cl)cc1)c1ccccc1 [AS194490]
- pIC50: 6.22

Structure (SMILES): CC[C@H]1CC[C@H]2[C@@H]3C[C@@H](O)[C@@]4(O)C[C@H](N)CC[C@]4(C)[C@H]3CC[C@]12C [Compound K116]
- pIC50: 4.89 to 5.19
